Our source for the remaining activity values is PMC8365601, “Terphenyl-Based Small-Molecule Inhibitors of Programmed Cell Death-1/Programmed Death-Ligand 1 Protein–Protein Interaction” (Journal of Medicinal Chemistry, 2021).

The assay concerns the target PD-1/PD-L1 complex (Homo sapiens, UniProt Q9NZQ7). The assay can be described thus: HTRF assay of PD-1/PD-L1 complex dissociation (CisBio).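 Further: human PD-L1 at 5 nM with human PD-1 at 50 nM, TR-FRET signal read after 2 h at room temperature, background removed via negative control and scaled to positive control.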 To be noted: 2 h, read-out: % of the undissociated complex in HTRF. (In TR-FRET formats the signal depends on donor and acceptor labels being close together.)

Take `Cc1c(-c2ccc(CO)cc2)cccc1-c1ccc2c(c1)OCCO2` [4a, (3′-(Benzo-1,4-dioxan-6-yl)-2′-methyl-[1,1′-biphenyl]-4-yl)methanol]: the remaining activity at 5 µM stood at 42%.
